Molecular target: opioid receptor subtype δ2 (Homo sapiens, UniProt P41143)
Test: BODIPY-FL-GTPγS functional assay on opioid receptor arrays
Settings: 25 nM BODIPY-FL-GTPγS, 3 μM GDP, 90 minutes, in the presence of dynorphin A

Question: With dynorphin A as the substance, how does the “increase in basal level fluorescence” value read?
Answer: ~10 fold

Source: patent publication US8257965B2, “Arrays of biological membranes and methods and use thereof” (Corning Incorporated, priority 2001, dated 2012)
